Laboratory results as given in PubChem BioAssay AID1718 (Vanderbilt High Throughput Screening Facility, 2009).
The list shows a part of the results, in another mix than the full data. Records with an inconclusive call do not appear. Active and inactive are the calls of the source.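 The calls were made as follows: active = thallium flux slope above the same plate's solvent-control mean plus 3 SD in both duplicate wells; inconclusive = duplicate wells that disagreed; inactive = the rest.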

Assay: native HEK Tl+ uptake effects, second counter-screen – HEK cells, counterscreen 2, counter-screen for KCC2 modulator project, confirmation (AID 1718);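 also: run without ouabain in cells lacking the KCC2 cotransporter; slope of fluorescence scaled to its starting value between 10 and 20 s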
Settings: HEK293 parental, thallium flux FluoZin-2 fluorescence slope; at 10 µM
In short: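 System: untransfected HEK cells, thallium influx assay; Schedule: 37 °C overnight growth, 48 min FluoZin2-AM loading; Medium: HBSS with 20 mM HEPES for dye loading; Measured by: FluoZin2-AM fluorescence (0.5 µM), ex 480 nm, em 540 nm, kinetic 1 Hz; Read-out: thallium influx rate; Compound: single 10 µM final compound dose, 0.1% DMSO.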

SMILES | thallium flux slope
O=c1c2cc([N+](=O)[O-])ccc2[nH]c2c([N+](=O)[O-])cc([N+](=O)[O-])cc12 | inactive: 0.0105
C[N+]1=C2C=CC=CC=C2SC12C([N+](=O)[O-])=CC([N+](=O)[O-])=C[C-]2[N+](=O)[O-] (stereo not drawn) | active: 0.0222
O=P(Nc1nc2ccc(Cl)cc2s1)(c1ccccc1)c1ccccc1 | active: 0.0183
